## Apparent affinities of Ab-95 variants for a coronavirus HR2 peptide

The target is the same throughout: PDVDLGDISGINAS, from the HR2 region of SARS-CoV-2 spike.

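Phage display of a naive human antibody library on the peptide gave the parent. AAYL52 was designed without a model: most single CDR substitutions and a random sample of double and triple ones. The assay is AlphaSeq: two haploid yeast populations carry antibody and antigen on their surface. After mating in shaken culture at 30 °C for 16 h, diploids were selected and their barcode pairs sequenced. The ratio of observed to expected reads was calibrated, replicate by replicate, on BCL2-family standards whose Kd was known from biolayer interferometry. The assay was run in three technical replicates.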

Ab-95 is the parent antibody, in scFv form: VH, then the linker GGGGSGGGGSGGGGS, then VL. The heavy chain is unchanged in all variants.
VH: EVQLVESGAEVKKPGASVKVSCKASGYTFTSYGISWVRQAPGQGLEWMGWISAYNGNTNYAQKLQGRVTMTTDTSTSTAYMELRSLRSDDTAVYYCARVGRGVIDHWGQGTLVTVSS
VL: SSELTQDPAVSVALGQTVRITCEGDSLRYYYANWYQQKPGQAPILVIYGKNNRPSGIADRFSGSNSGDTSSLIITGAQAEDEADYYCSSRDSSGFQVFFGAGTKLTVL

Changes read parent residue, position, new residue, counted from the first residue of the VL shown. The read-out is the apparent dissociation constant on a log10 scale (nM): the lower, the stronger. A mean of the replicates is given; it leaves out those without a signal. A pair that was not seen in any replicate is written "no signal"; this usually means weak binding, but a binder can also be missed. As a blank, each scFv also met three strains without target: over library AAYL52, 28% of these pairings were detected, typically at 3.91 and seldom below 2.90. For each scFv, signals with the empty controls are counted beside the result.

| changes | mean, log10 nM | replicates with signal | empty controls |
|---|---|---|---|
| S26N S55H F95G | 3.05 | 1 of 3 | 2 of 9 |
| L27E A32E N51A | 4.76 | 1 of 3 | 2 of 9 |
| D25K N33S S89P | 4.88 | 3 of 3 | 5 of 9 |
| Y31C P54D G94Y | no signal | 0 of 3 | 2 of 9 |
| Y31T S55Q Q96N | 2.19 | 3 of 3 | 3 of 9 |
| Y29W S92V G94F | 3.25 | 2 of 3 | 1 of 9 |
| P54K S55C | 3.32 | 3 of 3 | 3 of 9 |
| L27H G49E V97P | 4.05 | 1 of 3 | 3 of 9 |
| Y30H S89C G94E | no signal | 0 of 3 | 0 of 9 |
| S26C N33V F95W | 3.58 | 1 of 3 | 4 of 9 |
| G49Y N51W G94F | no signal | 0 of 3 | 1 of 9 |
| R53F S89A F98G | 3.27 | 1 of 3 | 3 of 9 |
| N51M S88Q S92W | no signal | 0 of 3 | 0 of 9 |
| Y30I S92T F98I | 3.17 | 3 of 3 | 5 of 9 |
| A32F D91S V97I | 4.42 | 1 of 3 | 0 of 9 |
| G24L S88L S92H | no signal | 0 of 3 | 2 of 9 |
| G24P R28G Y31N | 3.55 | 2 of 3 | 1 of 9 |
| G24P G49F F95N | 3.36 | 1 of 3 | 7 of 9 |
| Y29A S88G R90A | 2.01 | 3 of 3 | 2 of 9 |
| E23N R90S F95Q | 4.08 | 3 of 3 | 3 of 9 |
| N51F G94E | 3.96 | 1 of 3 | 3 of 9 |
| L27V R90P S92F | 3.14 | 2 of 3 | 4 of 9 |
| R28S D91Q S92F | no signal | 0 of 3 | 1 of 9 |
| G24H Y31N S93T | 1.44 | 3 of 3 | 2 of 9 |
| N33C S89Q G94E | 5.20 | 2 of 3 | 4 of 9 |
| Y30S S89A S92M | 0.56 | 3 of 3 | 3 of 9 |
| Y31F N52V S88E | 2.47 | 3 of 3 | 3 of 9 |
| E23L R53N F98Y | 4.09 | 2 of 3 | 5 of 9 |
| A32V G49S N51T | no signal | 0 of 3 | 2 of 9 |
| D25Q L27P R53S | 3.81 | 2 of 3 | 2 of 9 |
| D25W Y31E K50N | 2.12 | 3 of 3 | 1 of 9 |
| D25H R28K A32K | no signal | 0 of 3 | 2 of 9 |
| E23Q R53Q G94P | no signal | 0 of 3 | 1 of 9 |
| G24W Y29V K50R | 4.15 | 2 of 3 | 4 of 9 |
| D25A P54A F95W | 2.70 | 3 of 3 | 3 of 9 |
| P54T Q96C F98C | 4.08 | 2 of 3 | 3 of 9 |
| S26F N52M F98G | 2.62 | 3 of 3 | 5 of 9 |
| N33Y R53P Q96D | no signal | 0 of 3 | 1 of 9 |
| N33A N51R S55K | 3.26 | 2 of 3 | 2 of 9 |

Continued, with the values leading:

| mean, log10 nM | replicates with signal | empty controls | changes |
|---|---|---|---|
| 2.61 | 3 of 3 | 4 of 9 | D25G Y31R S89C |
| no signal | 0 of 3 | 1 of 9 | N33H R53N P54V |
| 3.53 | 2 of 3 | 2 of 9 | A32K R90L V97P |
| 4.10 | 1 of 3 | 0 of 9 | L27N Q96C V97D |
| no signal | 0 of 3 | 1 of 9 | R28Y R90I D91E |
| 3.08 | 3 of 3 | 5 of 9 | R28K S55W S92F |
| 2.27 | 3 of 3 | 2 of 9 | Y31C F95T Q96K |
| 4.33 | 2 of 3 | 2 of 9 | N52Y S55P S93H |
| 4.06 | 2 of 3 | 0 of 9 | N51F S89H S92F |
| 5.14 | 1 of 3 | 4 of 9 | P54H S92P F95W |
| 2.74 | 3 of 3 | 5 of 9 | L27N Y31N P54E |
| 4.15 | 3 of 3 | 5 of 9 | G24R D25W Q96L |
| 4.05 | 2 of 3 | 4 of 9 | K50Y R53D Q96V |
| 2.76 | 3 of 3 | 0 of 9 | D25Q S55W Q96F |
| 2.38 | 3 of 3 | 1 of 9 | D25M Y31L S92R |
| no signal | 0 of 3 | 0 of 9 | G24T P54I |
| 2.64 | 3 of 3 | 4 of 9 | P54M V97R |
| no signal | 0 of 3 | 3 of 9 | R28M G49L S93D |
| 3.15 | 3 of 3 | 1 of 9 | A32G P54G S55I |
| 3.96 | 3 of 3 | 7 of 9 | N33L F95W |
| 2.87 | 1 of 3 | 5 of 9 | N33K S89T F98K |
| 2.84 | 3 of 3 | 5 of 9 | R28W N52G F95R |
| no signal | 0 of 3 | 2 of 9 | Y31I P54C Q96G |
| 4.97 | 2 of 3 | 5 of 9 | G24C P54W F98D |
| 3.84 | 3 of 3 | 6 of 9 | K50V R53Q G94R |
| 3.42 | 2 of 3 | 1 of 9 | N33S R53P P54M |
| 3.33 | 2 of 3 | 2 of 9 | G24P R28H A32N |
| 3.09 | 3 of 3 | 1 of 9 | S88A F98K |
| 3.69 | 2 of 3 | 3 of 9 | S88G S89M Q96L |
| 4.93 | 1 of 3 | 0 of 9 | E23T A32L G49I |
| 3.99 | 1 of 3 | 4 of 9 | E23V L27A V97P |
| 3.20 | 2 of 3 | 2 of 9 | P54Q S55H S92D |
| 2.94 | 3 of 3 | 3 of 9 | D25M V97Q |
| 4.00 | 2 of 3 | 4 of 9 | G24A L27I K50C |
| no signal | 0 of 3 | 1 of 9 | E23Y A32K S93M |
| 3.61 | 3 of 3 | 5 of 9 | Y31R D91H Q96L |
| 4.54 | 2 of 3 | 4 of 9 | Y29A K50S G94K |
| 2.92 | 3 of 3 | 2 of 9 | S55L S93T V97A |
| 3.85 | 1 of 3 | 3 of 9 | G49P N51S R53P |

The measurements come from Engelhart et al. 2022 (doi:10.1038/s41597-022-01779-4) through the FLAb antibody collection.